Publication PMC4207771, “Identification and Characterization of Novel Renal Sensory Receptors” (PLoS ONE, 2014)

Chains of the proteins cited; added tags and fusions are not shown. Residues count along the entry.
UniProt Q3KPA7, 1-317: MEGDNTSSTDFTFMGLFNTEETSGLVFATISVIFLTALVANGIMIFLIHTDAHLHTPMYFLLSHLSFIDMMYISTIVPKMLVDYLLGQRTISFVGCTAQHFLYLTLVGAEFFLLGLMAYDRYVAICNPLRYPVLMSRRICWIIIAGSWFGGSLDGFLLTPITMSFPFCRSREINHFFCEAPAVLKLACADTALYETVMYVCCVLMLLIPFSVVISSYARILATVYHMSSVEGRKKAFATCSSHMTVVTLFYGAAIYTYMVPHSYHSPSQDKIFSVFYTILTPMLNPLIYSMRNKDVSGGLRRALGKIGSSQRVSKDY

What was measured:
Conditions in all cases: chemicals tested individually, screened at 500uM (* also at 100uM)
Olfr99 = assay: dual-luciferase (cAMP/CREB reporter) ligand screen, Olfr99 in HEK293T cells; format: cell-based, mouse
Olfr31 = Olfr31 (Mus musculus, UniProt Q3KPA7); assay: dual-luciferase (cAMP/CREB reporter) ligand screen, Olfr31 in HEK293T cells; format: cell-based
Olfr693 = assay: dual-luciferase (cAMP/CREB reporter) ligand screen, Olfr693 in HEK293T cells; format: cell-based, mouse

OCCN(CCO)CCO
-: Olfr99 response in dual-luciferase assay (Olfr99) | Olfr31 response in dual-luciferase assay (Olfr31) | Olfr693 response in dual-luciferase assay (Olfr693)
